# Binding of CDR-mutated scFvs to a peptide of the spike HR2 region

Binding partner: SARS-CoV-2 spike HR2 peptide, sequence PDVDLGDISGINAS.

Parent: Ab-14, a human scFv built as VH, a 15-residue (Gly4Ser)3 linker, VL. Only the CDRs of the light chain vary.
VH: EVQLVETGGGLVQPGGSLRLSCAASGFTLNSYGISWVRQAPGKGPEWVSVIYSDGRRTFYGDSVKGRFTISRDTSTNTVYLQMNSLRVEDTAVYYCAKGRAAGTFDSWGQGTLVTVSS
VL: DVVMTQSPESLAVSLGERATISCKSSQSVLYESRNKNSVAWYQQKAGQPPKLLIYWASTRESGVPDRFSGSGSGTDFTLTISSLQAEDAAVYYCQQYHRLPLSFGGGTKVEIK

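Phage display of a naive human antibody library on the peptide gave the parent. Designed CDR sequences, proposed from the first random library and measured here. Group labels follow the data file (En: ensemble of fine-tuned language models; GP: Gaussian process model; HC: hill climbing; Gen: genetic algorithm; Gibbs: Gibbs sampling; a sequence that several methods proposed may carry one label only). The scFvs were displayed on barcoded MATa yeast, the peptide on MATalpha yeast. After mating in shaken culture at 30 °C for 16 h, diploids were selected and their barcode pairs sequenced. Each replicate has its own calibration line, from reference interactions of the BCL2 family. The assay was run in six technical replicates.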

Each variant is given by its three light chain CDRs, as the data file delimits them; those of the parent are KSSQSVLYESRNKNSVA, WASTRES, QQYHRLPLS.
Variants here have more than six changes.
The read-out is the apparent dissociation constant on a log10 scale (nM): the lower, the stronger.
The mean shown is taken over the replicates in which the pair was detected.
"no signal" means that the variant was in the library but no mating with the target was seen in any replicate; the authors take this as a sign of poor binding, and no number exists.
Nonspecific signal, from three strains lacking the peptide, appeared in 4% of pairings of all light chain designs, centred on 2.64 (5% of these signals below 1.59); values are not corrected for it.
The parent sequence was in this pool as ten entries: three were never detected, three once, and four in most replicates, with averages from 0.34 to 2.37.
The authors' rule: three or more of the six replicates give a measured affinity, fewer mean a poor binder.
A sequence measured in both rounds can read differently, since the two assays cover different ranges.

Variant KISQMVRVGSTHQNSIA, EEAKRAD, QQYHRLPLS [En_Gen] showed 0.30 (6 of 6 replicates).
Variant FMEMDFDGNDVNRNSIA, SDEAVTR, QHYARLPLS [En_Gibbs] showed no signal (0 of 6 replicates).
Variant ALSQSTDMTSRNVNSVA, DLTTREN, QQYHRLPLS [En_HC] showed 0.31 (6 of 6 replicates).
Variant KVSEFMRGMMRQKNSIA, DNNTRGS, QQYDRLPLS [En_Gen] showed 1.83 (6 of 6 replicates).
Variant HIHSQMFGTIAVKKNIA, NANTRLS, QQYSHLPLS [En_Gibbs] showed 1.52 (6 of 6 replicates).
Variant KVHQSWLYESRQINSVA, NASQRCD, QQYHRLPLS [GP_Gibbs] showed 0.30 (6 of 6 replicates).
Variant KLWMIFPEGQQELSAVA, NAGTLVQ, QQYNVLPLS [En_Gibbs] showed 2.29 (5 of 6 replicates).
Variant KISQMYRYEQQNSSSIA, EANEREQ, QSYHRLPLS [En_HC] showed 3.12 (3 of 6 replicates).
Variant KVSQSVLQGQRNKSSVA, EASTRER, QQYHRLPLS [GP_Gibbs] showed 1.38 (6 of 6 replicates).
Variant SCTSEMDQQQEQYNSVA, GVQHTAD, QQYGRLPLS [En_Gibbs] showed 1.51 (6 of 6 replicates).
Variant MFSQLMEYGSRYKNSIA, QASTRED, QQYHWLPLS [En_HC] showed 0.71 (6 of 6 replicates).
Variant KLSLFYRMESRNKNSVA, DNSTRES, QDYDRLPLS [En_HC] showed no signal (0 of 6 replicates).
Variant KLLQSVNYGSRALNSVA, QMETRED, QQYNRLPLS [En_HC] showed 1.63 (4 of 6 replicates).
Variant KLSVSYLFESIEKNSVA, ERSTRES, QDYNRLPLS [En_HC] showed 2.15 (6 of 6 replicates).
Variant SLAESVHLESRNKNSVA, DNSTRES, QHYDRLPLS [En_HC] showed 2.58 (4 of 6 replicates).
Variant ELFFNDDQLQEQSNNIA, HASLRSV, QQYMHLPLV [En_Gibbs] showed 0.85 (6 of 6 replicates).
Variant TISQVMNTLTRHGNNVA, DLQEREN, QQYFRLPLS [En_Gen] showed 0.54 (6 of 6 replicates).
Variant KLSQSWMQQWRNKNSVA, NASTRES, QQYHRLPLS [GP_Gibbs] showed 0.20 (6 of 6 replicates).
Variant KVSQSMDYESRNVMSVA, NASTRLK, QQYHRLPLS [GP_Gibbs] showed 1.81 (6 of 6 replicates).
Variant KIGMTLNMMMHKKNNVA, DLVTREN, QQYHRLPLS [En_Gen] showed 0.32 (6 of 6 replicates).
Variant HISYSMAHLSKNGNSVA, NQQTRES, QQYHRLPLS [En_HC] showed 0.47 (6 of 6 replicates).
Variant MLSEVLHMLGVQKNSIA, DLVLRAN, QQYHRLPLQ [En_Gen] showed no signal (0 of 6 replicates).
Variant KQSCGELYGSRNKNSVA, DASQREE, QQYHRLPLS [GP_Gibbs] showed 0.17 (6 of 6 replicates).
Variant MISQLYNMGQFAINSVA, QASQRNE, QQYDRLPLQ [En_Gen] showed 1.25 (6 of 6 replicates).
Variant HMMQYSEMQNIIQNNIA, DAMTRVT, QQYQHLPLS [En_Gibbs] showed 0.09 (6 of 6 replicates).
Variant TITMFMDNLTHNRNNVA, DTSTLGS, QSYDRLPLS [En_Gen] showed 2.88 (6 of 6 replicates).
Variant ILSQMLLTAGNKHNSVA, QANYRES, QQYHRLPLS [En_HC] showed 1.17 (6 of 6 replicates).
Variant KVSGSVLLWSRTANAVA, EASTRES, QQYHRLPLS [GP_Gibbs] showed 1.09 (6 of 6 replicates).
Variant KLFDRTMGEIVNQRAVA, EDNVRSV, QQYSQLPLT [En_Gibbs] showed 0.80 (6 of 6 replicates).
Variant QLMVFNLQAGSTQAAIA, DASHSTP, QQYARLPLM [En_Gibbs] showed 1.80 (5 of 6 replicates).
Variant MLSLNLHDMDANMNNVA, EMNQLTA, QDYHRLPLH [En_Gibbs] showed 0.56 (6 of 6 replicates).
Variant KVDISATVQGMHKSGIA, EHDMRVG, QQYFRLPLA [En_Gibbs] showed 0.34 (6 of 6 replicates).
Variant TISQVMNTLTRHGNNVA, DLTEREV, QQYFRLPLS [En_Gen] showed 1.45 (4 of 6 replicates).
Variant KVYQGINGHYGAHSSIA, QEETRLD, QQYAHLPLS [En_Gen] showed 1.11 (6 of 6 replicates).
Variant KLREQSHVESKQKNNVA, DNSTRES, QDYHRLPLS [En_HC] showed 2.82 (2 of 6 replicates).
Variant HISQSVGMTSRQKNSVA, ENSTRED, QQYDRLPLS [En_HC] showed 3.42 (3 of 6 replicates).
Variant KIMQSLNYESFNVSSVA, GQETRER, QAYHRLPLS [En_HC] showed 2.53 (3 of 6 replicates).
Variant MIAAGLRGVGRNKNSVA, NAQMRES, QHYHRLPLS [En_HC] showed 2.47 (5 of 6 replicates).
Variant RLLDWAYNLTAKDSNIA, DQDISGS, QQYSHLPLA [En_Gibbs] showed 2.39 (2 of 6 replicates).
Variant TLMMQPTEQRDNKHAVA, DNNQRDR, QQYHRLPLS [En_Gibbs] showed 1.38 (6 of 6 replicates).
Variant KLQFSEEYESRNKNSVA, MASTRCD, QQYHRLPLS [GP_Gibbs] showed 0.07 (6 of 6 replicates).
Variant KFSQMVNTLSVSKSAVA, EMSTRPE, QQYNRLPLA [En_Gen] showed 2.14 (6 of 6 replicates).
Variant KLRQSTHIESFEKNNVA, EMTTRES, QSYDRLPLS [En_HC] showed 0.89 (2 of 6 replicates).
Variant TLSDWLTYGMEQMNRIA, DRSHLEW, QQYGRLPLS [En_Gibbs] showed 1.98 (5 of 6 replicates).
Variant KMREDFYHGQVETSAIA, DGEHLNM, QQYSHLPLS [En_Gibbs] showed 0.35 (6 of 6 replicates).
Variant MISDLTMSGSRNKNSVA, DLSTRGS, QQYHRLPLS [En_HC] showed 0.05 (6 of 6 replicates).
Variant VLAMESYQKYRHENNIA, GANMRAQ, QQYNRLPFQ [En_Gibbs] showed 0.11 (6 of 6 replicates).
Variant KLSPSWLGEMRNDNSVA, NASTRRS, QQYHRLPLS [GP_Gibbs] showed -0.09 (6 of 6 replicates).
Variant KLSSVTGHMSQAKNNVA, EMVTREK, QQYNRLPLS [En_Gen] showed 0.45 (6 of 6 replicates).
Variant TISQMTSWQSNKKNSVA, EVTLREE, QQYDRLPLI [En_Gen] showed 0.75 (6 of 6 replicates).

The last 5 entries again:

With MISDLTMSGSRNKNSVA, DLSTRGS, QQYHRLPLS [En_HC] the result was 0.05 (6 of 6 replicates).
With VLAMESYQKYRHENNIA, GANMRAQ, QQYNRLPFQ [En_Gibbs] the result was 0.11 (6 of 6 replicates).
With KLSPSWLGEMRNDNSVA, NASTRRS, QQYHRLPLS [GP_Gibbs] the result was -0.09 (6 of 6 replicates).
With KLSSVTGHMSQAKNNVA, EMVTREK, QQYNRLPLS [En_Gen] the result was 0.45 (6 of 6 replicates).
With TISQMTSWQSNKKNSVA, EVTLREE, QQYDRLPLI [En_Gen] the result was 0.75 (6 of 6 replicates).

Reference: Li et al. 2023, doi:10.1038/s41467-023-39022-2. File: FLAb, binding data.